Like-named read-outs stand apart in the source and are kept apart here.
Tested on: grasshopper BBB (locusta migratoria brain in its cuticle shell)
Details: 5 min
Description: 1. […] The insects may be obtained from local suppliers or bred in house. The grasshoppers were reared under crowded conditions at 28° C. and a 12:12 dark:light photocycle and fed fresh grass and bran. Before experiments the grasshoppers were fed ecologically cultivated wheat for two weeks. Animals used are adult males (in some experiments females) between two to four weeks after adult emergence. A cut is made through the frontal part of the locust head comprising the most frontal parts including the antennae, the compound eyes, the brain and all neural connections between the brain and the antennae and the eyes. This preparation in its cuticle shell is placed in a well of a microtitre plate containing the test solution. After various times of exposure the preparation is washed in saline and the brain is dissected under microscope with fine forceps. The neural lamella surrounding the brain is removed in saline and the brain is then […] in saline, centrifuged and the supernatant frozen until analyses. Drug concentration is analysed by HPLC, LC/MSMS or other methods.
(§1) A cut was made through the frontal part of the head of adult female locusta migratoria. Each brain in its cuticle shell was placed in a 0.12 mg/ml mianserin solution for 5 minutes. The brain was prepared in saline and removed from the cuticle shell and three brains were placed in each test tube containing 100 ul distilled H2O. 200 ul ACN was added to each tube and the tubes were placed in a sonicator and the brains were disintegrated by approximately 5 seconds of sonication. The samples containing the disintegrated brains were centrifuged for 5 minutes (10000 g at 4° C.).
as §1, with “shell. The brains were washed in Saline. After wash” for “shell and”, “sonication.” for “sonication. The samples containing the disintegrated brains were centrifuged for 5 minutes (10000 g at 4° C.).”
A cut was made through the frontal part of the head of adult female locusta migratoria. Each brain in its cuticle shell was placed in a 0.12 mg/ml mianserin solution for 5 minutes. The brain was prepared in saline and removed from the cuticle shell. To stain the neural lamella Evans Blue was added and the neural lamella was removed. Three brains were placed in each test tube containing 100 ul distilled H2O. 200 ul ACN was added to each tube and the tubes were placed in a sonicator and the brains were disintegrated by approximately 5 seconds of sonication.
A cut was made through the frontal part of the head of the adult locusta migratoria. […]

average concentration in brain supernatant measured by LCMS (0.001 mg/ml): 3 ng/mL
average concentration in brain supernatant measured by LCMS (0.01 mg/ml): 11 ng/mL
average concentration in brain supernatant measured by LCMS (0.1 mg/ml): 52 ng/mL
average concentration in brain supernatant measured by LCMS (1 mg/ml): 684 ng/mL
SMILES: C=C[C@H]1C[N@@]2CC[C@H]1C[C@@H]2[C@@H](O)c1ccnc2ccc(OC)cc12 [quinidine]

Source: patent US9097706B2, “Insect-based ex vivo model for testing blood-brain barrier penetration and method for exposing insect brain to chemical compounds” (ENTOMOPHARM APS, priority 2009, dated 2015)
